Patent US12280055B2, “Combination therapies” (Mirati Therapeutics, Inc., priority 2021, dated 2025)

Tested on: MIA PaCa-2 cells
Assay: MIA PaCa-2 tumor xenograft, tumor volume / tumor growth inhibition
Format: in vivo, mice
Details: Study Day 27; Table 1
Protocol: Immunocompromised nude/nude mice are inoculated in the right hind flank with cells or patient derived tumor samples harboring a KRas G12C mutation. When tumor volumes reach between 200-400 mm^3 in size, the mice are divided into four groups of 4-12 mice each. The first group is administered vehicle only. […] An optional group is administered with a single agent dose of the MEK inhibitor (VS-6766) that yields less than maximal biological effect. The final group is administered the single agent dose of the KRas G12C inhibitor in combination with the single agent dose of the SOS1 inhibitor or with single agent dose of the KRas G12C inhibitor in combination with the single agent dose of the SOS1 inhibitor and the single agent VS-6766. […] Tumor volumes are measured using a caliper every two-three days and tumor volumes are calculated by the formula: […].
16-32 nude/nude, Balb/c nude, or NOD/SCID mice per study were inoculated in the right hind limb with 5×10^6 of the indicated cell line or tumor fragment. […] An additional combination group with 0.3 mg/kg MEK inhibitor VS-6766 was included for the triple combination study.

## C=C(F)C(=O)N1CCN(c2nc(OC[C@@H]3CCCN3C)nc3c2CCN(c2cccc4cccc(Cl)c24)C3)C[C@@H]1CC#N [Adagrasib, 2-[(2S)-4-[7-(8-chloro-1-naphthyl)-2-[[(2S)-1-methylpyrrolidin-2-yl]methoxy]-6,8-dihydro-5H-pyrido[3,4-d]pyrimidin-4-yl]-1-(2-fluoroprop-2-enoyl)piperazin-2-yl]acetonitrile, reference compound]
  Average Tumor Volumes: 493 mm^3
